Molecular target: IDO1 (Homo sapiens, UniProt P14902)
Assay: IDO1 Cellular Assay in HeLa Cells Stimulated with IFNγ
Type: cell-based
Settings: HeLa cells stimulated with IFNγ 100 ng/mL, about 48 hours

Protein sequences, listed by entry. Tags and fused reporters are not part of them.
UniProt P14902, whole entry: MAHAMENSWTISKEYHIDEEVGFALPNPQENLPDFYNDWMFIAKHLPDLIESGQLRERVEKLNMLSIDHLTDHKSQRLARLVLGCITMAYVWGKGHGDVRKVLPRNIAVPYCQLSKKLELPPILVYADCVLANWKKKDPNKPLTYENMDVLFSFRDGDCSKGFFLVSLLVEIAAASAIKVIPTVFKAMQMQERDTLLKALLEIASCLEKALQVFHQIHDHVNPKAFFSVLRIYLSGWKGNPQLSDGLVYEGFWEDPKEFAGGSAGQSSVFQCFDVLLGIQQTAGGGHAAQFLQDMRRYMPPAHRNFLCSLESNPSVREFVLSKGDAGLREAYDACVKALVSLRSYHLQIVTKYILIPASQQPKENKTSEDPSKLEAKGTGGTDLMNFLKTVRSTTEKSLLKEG

**Q.** For CCOC(=O)c1nn(CC(=O)N2CC[C@H](Oc3ncccc3Cl)C[C@@H]2C)c2c1[C@@H]1C[C@@H]1C2 [Example 68, (3bR,4aR)-ethyl 1-(2-((2S,4S)-4-((3-chloropyridin-2-yl)oxy)-2-methylpiperidin-1-yl)-2-oxoethyl)-3b,4,4a,5-tetrahydro-1H-cyclopropa[3,4]cyclopenta[1,2-c]pyrazole-3-carboxylate], which EC50 is on record?
**A.** 132 nM

**Q.** With Cc1ccccc1OC1CCN(C(=O)Cn2nc(C(=O)N3CC[C@@H](O)[C@@H](F)C3)c3c2C[C@H]2C[C@@H]32)CC1 [Example 27, 2-((3bR,4aR)-3-((3S,4R)-3-fluoro-4-hydroxypiperidine-1-carbonyl)-3b,4,4a,5-tetrahydro-1H-cyclopropa[3,4]cyclopenta[1,2-c]pyrazol-1-yl)-1-(4-(o-tolyloxy)piperidin-1-yl)ethanone] as the compound, how does the EC50 read?
**A.** 2.57 nM

**Q.** For CCOC(=O)c1nn(CC(=O)N2CCC(Oc3ccccc3Cl)CC2)c2c1CCCC2 [Example 14, ethyl 1-(2-(4-(2-chlorophenoxy)piperidin-1-yl)-2-oxoethyl)-4,5,6,7-tetrahydro-1H-indazole-3-carboxylate], which EC50 is on record?
**A.** 21.3 nM

**Q.** How did the EC50 turn out when Cc1ccccc1OC1CCN(C(=O)Cn2nc(C(=O)N3CCN(C(=O)CO)CC3)c3c2C[C@H]2C[C@@H]32)CC1 [Example 2, 2-Hydroxy-1-(4-((3bR,4aR)-1-(2-oxo-2-(4-(o-tolyloxy)piperidin-1-yl)ethyl)-3b,4,4a,5-tetrahydro-1H-cyclopropa[3,4]cyclopenta[1,2-c]pyrazole-3-carbonyl)piperazin-1-yl)ethanone] was run?
**A.** 2.33 nM

**Q.** Which EC50 does the source give for C[C@@H]1CN(C(=O)c2nn(CC(=O)N3CCC(Oc4ccccc4Cl)C3)c3c2CCC3)C[C@H](C)O1 (stereo partly drawn) [Example 125, 1-[3-(2-chlorophenoxy)pyrrolidin-1-yl]-2-{3-[(2R,6S)-2,6-dimethylmorpholine-4-carbonyl]-5,6-dihydrocyclopenta[c]pyrazol-1(4H)-yl}ethan-1-one] here?
**A.** 423 nM

**Q.** Which EC50 does the source give for Cc1ccccc1OC1CCN(C(=O)Cn2nc(C(=O)N3CCC(F)(CO)CC3)c3c2CCCC3)CC1 [Example 28, 2-(3-(4-fluoro-4-(hydroxymethyl)piperidine-1-carbonyl)-4,5,6,7-tetrahydro-1H-indazol-1-yl)-1-(4-(o-tolyloxy)piperidin-1-yl)ethanone] here?
**A.** 2.58 nM

**Q.** With C[C@@H]1CN(C(=O)c2nn(CC(=O)N3CCC(Oc4cccc(C(F)(F)F)c4)CC3)c3c2CCC3)C[C@H](C)O1 [Example 110, 2-{3-[(2R,6S)-2,6-dimethylmorpholine-4-carbonyl]-5,6-dihydrocyclopenta[c]pyrazol-1(4H)-yl}-1-{4-[3-(trifluoromethyl)phenoxy]piperidin-1-yl}ethan-1-one] as the compound, how does the EC50 read?
**A.** 129 nM

**Q.** Which EC50 does the source give for C[C@H]1C[C@@H](Oc2ncccc2Cl)CCN1C(=O)Cn1nc(C(=O)N2CCC(OCCO)CC2)c2c1C[C@H]1C[C@@H]21 [Example 54, 1-((2S,4S)-4-((3-chloropyridin-2-yl)oxy)-2-methylpiperidin-1-yl)-2-((3bR,4aR)-3-(4-(2-hydroxyethoxy)piperidine-1-carbonyl)-3b,4,4a,5-tetrahydro-1H-cyclopropa[3,4]cyclopenta[1,2-c]pyrazol-1-yl)ethanone] here?
**A.** 20.4 nM

**Q.** Which EC50 does the source give for Cc1cccc(C)c1OC1CCN(C(=O)Cn2nc(C(=O)N3C[C@@H](C)O[C@@H](C)C3)c3c2CCC3)CC1 [Example 147, 2-{3-[(2R,6S)-2,6-dimethylmorpholine-4-carbonyl]-5,6-dihydrocyclopenta[c]pyrazol-1(4H)-yl}-1-[4-(2,6-dimethylphenoxy)piperidin-1-yl]ethan-1-one] here?
**A.** 23.8 nM

**Q.** C[C@@H]1CN(C(=O)c2nn(CC(=O)N3CCC(Oc4cccc(OC(F)(F)F)c4)CC3)c3c2CCC3)C[C@H](C)O1 [Example 165, 2-{3-[(2R,6S)-2,6-dimethylmorpholine-4-carbonyl]-5,6-dihydrocyclopenta[c]pyrazol-1(4H)-yl}-1-{4-[3-(trifluoromethoxy)phenoxy]piperidin-1-yl}ethan-1-one] was tested. Which EC50 did it give?
**A.** 402 nM

**Q.** With O=C(c1nn(CC(=O)N2CCC(Oc3ccccc3)C3CC32)c2c1[C@@H]1C[C@@H]1C2)N1CCC(OCCO)CC1 (single isomer, unassigned) [Example 173] as the compound, how does the EC50 read?
**A.** 13.4 nM

**Q.** Cc1ccc(OC2CCN(C(=O)Cn3nc(C(=O)N4C[C@@H](C)O[C@@H](C)C4)c4c3CCC4)CC2)c(F)c1 [Example 132, 2-{3-[(2R,6S)-2,6-dimethylmorpholine-4-carbonyl]-5,6-dihydrocyclopenta[c]pyrazol-1(4H)-yl}-1-[4-(2-fluoro-4-methylphenoxy)piperidin-1-yl]ethan-1-one] was tested. Which EC50 did it give?
**A.** 2.95 nM

**Q.** How did the EC50 turn out when O=C(CO)N1CCN(C(=O)c2nn(CC(=O)N3CCC(Oc4ccccc4Cl)CC3)c3c2CCCC3)CC1 [Example 10, 1-(4-(2-chlorophenoxy)piperidin-1-yl)-2-(3-(4-(2-hydroxyacetyl)piperazine-1-carbonyl)-4,5,6,7-tetrahydro-1H-indazol-1-yl)ethan-1-one] was run?
**A.** 2.02 nM

**Q.** How did the EC50 turn out when Cc1ccccc1OC1CCN(C(=O)Cn2nc(C(=O)N3CCC(O)CC3(C)C)c3c2CCCC3)CC1 (stereo not drawn) [Example 25, 2-(3-(4-hydroxy-2,2-dimethylpiperidine-1-carbonyl)-4,5,6,7-tetrahydro-1H-indazol-1-yl)-1-(4-(o-tolyloxy)piperidin-1-yl)ethanone] was run?
**A.** 2.1 nM

**Q.** How did the EC50 turn out when Cc1ccccc1OC1CCN(C(=O)Cn2nc(C(=O)N3CCC(O)CC3)c3c2C[C@H]2C[C@@H]32)CC1 [Example 21, 2-((3bR,4aR)-3-(4-hydroxypiperidine-1-carbonyl)-3b,4,4a,5-tetrahydro-1H-cyclopropa[3,4]cyclopenta[1,2-c]pyrazol-1-yl)-1-(4-(o-tolyloxy)piperidin-1-yl)ethanone] was run?
**A.** 1.81 nM

**Q.** Which EC50 does the source give for C[C@@H]1CN(C(=O)c2nn(CC(=O)N3CCC(Oc4ccc(C(F)(F)F)cc4)CC3)c3c2CCC3)C[C@H](C)O1 [Example 102, 2-{3-[(2R,6S)-2,6-dimethylmorpholine-4-carbonyl]-5,6-dihydrocyclopenta[c]pyrazol-1(4H)-yl}-1-{4-[4-(trifluoromethyl)phenoxy]piperidin-1-yl}ethan-1-one] here?
**A.** 24 nM

**Q.** With C[C@@H]1CN(C(=O)c2nn(CC(=O)N3CCC(Oc4cccc(Cl)c4F)CC3)c3c2CCC3)C[C@H](C)O1 [Example 139, 1-[4-(3-chloro-2-fluorophenoxy)piperidin-1-yl]-2-{3-[(2R,6S)-2,6-dimethylmorpholine-4-carbonyl]-5,6-dihydrocyclopenta[c]pyrazol-1(4H)-yl}ethan-1-one] as the compound, how does the EC50 read?
**A.** 9.69 nM

**Q.** Which EC50 does the source give for Cc1ccccc1CC1CCN(C(=O)Cn2nc(C(=O)N3C[C@@H](C)O[C@@H](C)C3)c3c2CCC3)CC1 [Example 118, 2-{3-[(2R,6S)-2,6-dimethylmorpholine-4-carbonyl]-5,6-dihydrocyclopenta[c]pyrazol-1(4H)-yl}-1-{4-[(2-methylphenyl)methyl]piperidin-1-yl}ethan-1-one] here?
**A.** 31.5 nM

**Q.** Which EC50 does the source give for C[C@H]1C[C@H](Oc2ncccc2C(F)(F)F)CCN1C(=O)Cn1nc(C(=O)N2CCC(OCCO)CC2)c2c1C[C@H]1C[C@@H]21 [Example 60, 2-((3bR,4aR)-3-(4-(2-hydroxyethoxy)piperidine-1-carbonyl)-3b,4,4a,5-tetrahydro-1H-cyclopropa[3,4]cyclopenta[1,2-c]pyrazol-1-yl)-1-((2S,4R)-2-methyl-4-((3-(trifluoromethyl)pyridin-2-yl)oxy)piperidin-1-yl)ethanone] here?
**A.** 63.6 nM

**Q.** How did the EC50 turn out when Cc1cc(F)ccc1OC1CCN(C(=O)Cn2nc(C(=O)N3CCO[C@@H](CO)C3)c3c2CCCCC3)CC1 [Example 86, 1-[4-(4-fluoro-2-methyl-phenoxy)-1-piperidyl]-2-[3-[(2R)-2-(hydroxymethyl)morpholine-4-carbonyl]-5,6,7,8-tetrahydro-4H-cyclohepta[c]pyrazol-1-yl]ethanone] was run?
**A.** 43.2 nM

**Q.** How did the EC50 turn out when C[C@@H]1C[C@H](Oc2ncccc2F)CCN1C(=O)Cn1nc(C(=O)N2CCC(O)CC2)c2c1C[C@H]1C[C@@H]21 [Example 58, 1-((2R,4R)-4-((3-fluoropyridin-2-yl)oxy)-2-methylpiperidin-1-yl)-2-((3bR,4aR)-3-(4-hydroxypiperidine-1-carbonyl)-3b,4,4a,5-tetrahydro-1H-cyclopropa[3,4]cyclopenta[1,2-c]pyrazol-1-yl)ethanone] was run?
**A.** 62.5 nM

**Q.** How did the EC50 turn out when C[C@@H]1C[C@H](Oc2ncccc2Cl)CCN1C(=O)Cn1nc(C(=O)N2CCC(OCCO)CC2)c2c1C[C@H]1C[C@@H]21 [Example 74, 1-((2R,4R)-4-((3-chloropyridin-2-yl)oxy)-2-methylpiperidin-1-yl)-2-((3bR,4aR)-3-(4-(2-hydroxyethoxy)piperidine-1-carbonyl)-3b,4,4a,5-tetrahydro-1H-cyclopropa[3,4]cyclopenta[1,2-c]pyrazol-1-yl)ethanone] was run?
**A.** 4.28 nM

**Q.** How did the EC50 turn out when O=C(CO)N1CCN(C(=O)c2nn(CC(=O)N3CCC(Oc4ccccc4Cl)C4CC43)c3c2[C@@H]2C[C@@H]2C3)CC1 (single isomer, unassigned) [Example 168] was run?
**A.** 4.63 nM

**Q.** Cc1ccccc1OC1CCN(C(=O)Cn2nc(C(=O)N3CC[C@H](O)[C@H](F)C3)c3c2C[C@H]2C[C@@H]32)CC1 [Example 16, 2-((3bR,4aR)-3-((3R,4S)-3-fluoro-4-hydroxypiperidine-1-carbonyl)-3b,4,4a,5-tetrahydro-1H-cyclopropa[3,4]cyclopenta[1,2-c]pyrazol-1-yl)-1-(4-(o-tolyloxy)piperidin-1-yl)ethanone] was tested. Which EC50 did it give?
**A.** 1.07 nM

**Q.** With Cc1cc(F)ccc1OC1CCN(C(=O)Cn2nc(C(=O)N3CCO[C@H](CO)C3)c3c2CCC3)CC1 [Example 87, 1-[4-(4-fluoro-2-methyl-phenoxy)-1-piperidyl]-2-[3-[(2S)-2-(hydroxymethyl)morpholine-4-carbonyl]-5,6-dihydro-4H-cyclopenta[c]pyrazol-1-yl]ethanone] as the compound, how does the EC50 read?
**A.** 52.9 nM

**Q.** How did the EC50 turn out when Cc1cc(OC2CCN(C(=O)Cn3nc(C(=O)N4C[C@@H](C)O[C@@H](C)C4)c4c3CCC4)CC2)ccc1F [Example 151, 2-{3-[(2R,6S)-2,6-dimethylmorpholine-4-carbonyl]-5,6-dihydrocyclopenta[c]pyrazol-1(4H)-yl}-1-[4-(4-fluoro-3-methylphenoxy)piperidin-1-yl]ethan-1-one] was run?
**A.** 34.6 nM

**Q.** O=C(Cn1nc(C(=O)N2CCC(OCCO)CC2)c2c1CCCC2)N1CCC(Oc2ccccc2Cl)CC1 [Example 15, 1-(4-(2-chlorophenoxy)piperidin-1-yl)-2-(3-(4-(2-hydroxyethoxy)piperidine-1-carbonyl)-4,5,6,7-tetrahydro-1H-indazol-1-yl)ethanone] was tested. Which EC50 did it give?
**A.** 0.51 nM
